The experiment addresses SARM1 (Homo sapiens, UniProt Q6SZW1). Kind of experiment: In vitro biochemical assay for inhibiting SARM1 enzyme activity (PC6 fluorescence, NADase). Conditions: full-length SARM1 from transfected HEK293 cells; 50 µM NAD, 50 µM PC6, 50 µM NMN activator; room temperature, 30 minutes.

The chains behind the UniProt entries cited, without tags or fusion partners. Residues count along the entry.
UniProt Q6SZW1, 28-724 limits assumed: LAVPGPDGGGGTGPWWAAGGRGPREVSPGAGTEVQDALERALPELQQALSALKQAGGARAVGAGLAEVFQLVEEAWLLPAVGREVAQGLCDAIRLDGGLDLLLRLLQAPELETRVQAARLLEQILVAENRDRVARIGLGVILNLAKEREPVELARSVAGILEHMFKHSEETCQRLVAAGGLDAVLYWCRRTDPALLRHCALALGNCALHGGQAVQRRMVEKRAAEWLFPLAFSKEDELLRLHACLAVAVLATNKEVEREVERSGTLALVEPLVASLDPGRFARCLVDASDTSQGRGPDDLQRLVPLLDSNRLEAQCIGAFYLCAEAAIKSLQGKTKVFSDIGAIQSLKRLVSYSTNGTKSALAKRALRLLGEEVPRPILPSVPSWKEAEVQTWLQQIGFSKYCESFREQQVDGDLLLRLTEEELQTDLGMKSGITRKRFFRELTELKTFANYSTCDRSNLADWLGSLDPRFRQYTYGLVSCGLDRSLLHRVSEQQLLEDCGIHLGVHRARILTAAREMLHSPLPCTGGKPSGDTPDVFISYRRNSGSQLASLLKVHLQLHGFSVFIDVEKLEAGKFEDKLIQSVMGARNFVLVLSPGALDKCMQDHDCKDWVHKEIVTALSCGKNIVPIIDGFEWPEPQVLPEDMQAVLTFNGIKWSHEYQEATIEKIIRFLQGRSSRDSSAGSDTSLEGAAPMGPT

For orientation: IC50 means the concentration that inhibits the measured activity by half. Read a low IC50 as higher potency. Consider `O=C1C(Cc2ccc(F)c(F)c2)CCN1c1ccc2c(c1)COc1cnccc1-2` (stereo not shown), for which the IC50 lay within 100 to 1000 nM.
